Values quoted from earlier work, collected in patent US20040126343A1, “Nail drug delivery” (priority 2002, published 2004).

Conditions: single topical application on the human knee area; until the dosed site was washed at 24 h postdosing; cited from earlier work

O=C(O)Cc1ccccc1Nc1c(Cl)cccc1Cl [diclofenac]
Delivery from the carrier through the skin and into the urine: continuous delivery
